From patent US20100076005A1, “ISOCARBOSTYRIL ALKALOID DERIVATIVES HAVING ANTI-PROLIFERATIVE AND ANTI-MIGRATORY ACTIVITIES” (Unibioscreen SA, priority 2006, published 2010)

Experiment: in vivo
Settings: mouse, maximum tolerated dose, single intravenous dose, healthy mice, survival and weights recorded up to 14 days
Description: The maximum tolerated dose (herein after MTD) is defined as the maximum amount of a given drug which can be administered acutely (i.e. in one intraperitoneal, intravenous, subcutaneous or oral single dose) to healthy animals, i.e. animals not grafted with tumors. In this assay, compounds were administered intravenously. The survival times and weights of the animals were recorded up to 14 days post injection. Five different doses of each compound were used for the determination of the MTD index. Each experimental group comprised 3 mice for the determination of the MTD (expressed in mg/kg).

SMILES: O=C1N[C@@H]2C(=C[C@H](O)[C@@H](O)[C@H]2O)c2cc3c(c(O)c21)OCO3 [narciclasine, reference compound]
- MTD at 14 days: 10 mg/kg
